Reference: patent US20150346599A1, “PHOTO-DESTROYABLE QUENCHER AND ASSOCIATED PHOTORESIST COMPOSITION, AND DEVICE-FORMING METHOD” (Rohm and Haas Electronic Materials LLC, priority 2014, published 2015)

Tests used:
[1] = Shelf life testing: compound stability in solution by 1H NMR peak integration; conditions: 100 millimolar in deuterated dimethylsulfoxide, 1H NMR at 25° C.
Procedure: Compound stability was monitored by peak integration using ^1H NMR at 25° C. with relaxation delay set to 5 seconds on a 300 Megahertz Varian NMR spectrometer. Compound purity was calculated using the following formula: 100−((sum impurity peaks)/((total impurity peaks)+(total purity peaks))*100).

[2] = Water absorption (hygroscopicity): water weight gain of the solid; assay type: physicochemical
Procedure: Compounds that absorb atmospheric moisture may cause inaccurate amount additions into formulations and are also difficult to handle. […] To quantify this characteristic, 1 millimole of each solid was placed in an open vial and enclosed in a 4 liter vessel containing 100 milliliters of exposed water. The weight of each vial was prerecorded and reweighed 18 hours later to determine the water weight gain.

Which “Compound Purity (%) 0 days” value ([1]; 0 days) does the source give for “Triphenylsulfonium phenolate [Compar. Example 1, reference compound]” here?
Its value is 100%.

And the “Compound Purity (%) 3 days” value ([1]; 3 days)?
The value was 79%.

What about the “Compound Purity (%) 14 days” value ([1]; 14 days) of the same substance?
Its value is 60%.

And the “Hygroscopicity (in words)” value [2]?
Its value is “hygroscopic”.

And the “Weight Gain relative to Reference (%)” value ([2]; 1 millimole solid in open vial in 4 liter vessel with 100 milliliters exposed water, 18 hours, reference triphenylsulfonium camphorsulfonate)?
Its value is 520%.

What about the “Matter State After Exposure to Water” value ([2]; after 18 hours exposure to water vapour) of the same substance?
Its value is “Oil”.

What about the “Matter State Before Exposure to Water” value ([2]; before exposure) of the same substance?
The value was “Solid”.
